Measurements as given in patent publication US20040087506A1, “Methods of modulating FabH activity” (SmithKline Beecham Corporation, priority 1999, published 2004).

Target: T1, E. coli FabH (Escherichia coli, UniProt P0A6R0)
T1 sequence (P0A6R0 1-317): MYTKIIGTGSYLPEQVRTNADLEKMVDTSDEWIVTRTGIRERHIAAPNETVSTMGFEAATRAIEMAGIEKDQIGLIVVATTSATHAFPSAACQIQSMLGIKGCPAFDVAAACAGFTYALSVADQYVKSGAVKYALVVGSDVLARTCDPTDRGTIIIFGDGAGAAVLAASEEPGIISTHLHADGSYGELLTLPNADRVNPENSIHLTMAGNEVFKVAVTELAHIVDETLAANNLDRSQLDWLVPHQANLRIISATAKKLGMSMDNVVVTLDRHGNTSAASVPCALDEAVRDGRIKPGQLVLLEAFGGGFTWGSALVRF
Assay: Kinetic analysis of E. coli FabH (optimized activity assay)
Conditions: read-out: Apparent Km; substrate of FabH; ping-pong mechanism, acetyl-CoA first substrate, malonyl-ACP second

## malonyl-ACP
  Km: 6.8 µM
